From US20160220542A1, “SYNERGISTIC ACTIVITY OF MODULATORS OF THE NO METABOLISM AND OF NADPH OXIDASE IN THE SENSITISATION OF TUMOR CELLS” (Universitaetsklinikum Freiburg, priority 2010, published 2016)

System: extracellular superoxide anion production of MKN-45 cells
Assay: extracellular superoxide anion production of MKN-45 cells (Cu SOD bell curve shift)
Format: cell-based
Conditions: lower epothilone concentration; malvidin chloride, artemisinin; 150 mM 3-AT, 8 hours

## C[C@@H]1CC[C@H]2[C@@H](C)C(=O)O[C@@H]3O[C@@]4(C)CC[C@@H]1[C@]32OO4 [artemisinin]
  effect on superoxide anion production: did not demonstrate any effect
